Measured values published in patent US9034866B2 (Genentech, Inc., priority 2012, dated 2015).
“And” between values parts separate entries of the source, which are not always exact repeats. Equal entries are not always repeated.

By UniProt entry, the sequences of proteins in these tests, tags left out. Where a name states a change or a piece, a line headed by the entry shows the natural chain unless it says otherwise.
UniProt Q99558: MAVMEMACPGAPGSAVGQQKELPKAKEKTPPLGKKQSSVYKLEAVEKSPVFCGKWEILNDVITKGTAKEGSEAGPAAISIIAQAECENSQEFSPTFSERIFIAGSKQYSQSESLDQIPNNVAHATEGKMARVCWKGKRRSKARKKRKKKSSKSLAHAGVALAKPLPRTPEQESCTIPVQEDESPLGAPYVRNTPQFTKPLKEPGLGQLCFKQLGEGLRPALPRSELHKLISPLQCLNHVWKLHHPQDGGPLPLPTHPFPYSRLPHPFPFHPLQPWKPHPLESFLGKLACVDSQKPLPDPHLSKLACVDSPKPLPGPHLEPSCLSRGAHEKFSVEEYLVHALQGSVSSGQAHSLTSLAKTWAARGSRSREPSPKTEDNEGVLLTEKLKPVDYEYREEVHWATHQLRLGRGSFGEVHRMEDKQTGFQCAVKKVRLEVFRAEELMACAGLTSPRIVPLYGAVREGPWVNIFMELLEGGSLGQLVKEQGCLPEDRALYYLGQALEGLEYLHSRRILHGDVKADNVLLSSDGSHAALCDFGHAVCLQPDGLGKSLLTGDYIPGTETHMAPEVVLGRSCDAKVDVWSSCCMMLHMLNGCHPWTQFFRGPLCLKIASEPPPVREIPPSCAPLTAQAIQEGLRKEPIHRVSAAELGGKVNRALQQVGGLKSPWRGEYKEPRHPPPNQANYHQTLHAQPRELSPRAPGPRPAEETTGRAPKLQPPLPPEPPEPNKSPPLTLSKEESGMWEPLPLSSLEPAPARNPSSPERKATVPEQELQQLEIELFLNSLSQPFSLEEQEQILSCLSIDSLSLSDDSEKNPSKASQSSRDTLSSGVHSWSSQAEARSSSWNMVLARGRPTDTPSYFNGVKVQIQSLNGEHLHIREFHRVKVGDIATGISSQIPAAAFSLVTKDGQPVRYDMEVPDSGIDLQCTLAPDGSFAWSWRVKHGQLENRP

Target: nuclear factor-kappa B (NF-kB)-inducing kinase (NIK) (Homo sapiens (Human), UniProt Q99558)
Assay: NIK Enzyme Inhibition Assay (Transcreener ADP fluorescence polarization)
Type: biochemical
Settings: read-out: NIK ADP-FP (Ki uM)
Procedure: NIK Enzyme Inhibition Assay: The ability of the nuclear factor-kappa B (NF-kB)-inducing kinase (NIK) to catalyze the hydrolysis of adenosine-5′-triphosphate (ATP) was monitored using the Transcreener ADP (adenosine-5′-diphosphate) assay (BellBrook Labs). Purified NIK (0.2-1 nM) derived from a baculovirus-infected insect cell expression system was incubated with test compounds for 1-3.5 hours in 50 mM 2-[4-(2-hydroxyethyl)piperazin-1-yl]ethanesulfonic acid buffer (pH 7.2) containing 10 mM MgCl2, 2 mM dithiothreitol, 10 uM ATP, 0.01% Triton X-100, 0.1% gamma-globulins from bovine blood, 1% dimethylsulfoxide (DMSO), 12 ug/mL ADP antibody and 4 nM ADP-AlexaFluor® 633 tracer. Reactions were quenched by the addition of 20 mM 2,2′,2″,2′″-(ethane-1,2-diyldinitrilo)tetraacetic acid and 0.01% Brij 35. The tracer bound to the antibody was displaced by the ADP generated during the NIK reaction, which causes a decrease in fluorescence polarization that was measured by laser excitation at 633 nm with a Fluorescence Correlation Spectroscopy Plus reader (Evotec AG).

SMILES	Ki
CN1CC[C@@](O)(C#Cc2cc3c(cc2F)OCCn2cc(C(N)=O)nc2-3)C1=O [Example 263]	0.00024 µM
CN1CC[C@](O)(C#Cc2cc3c(cc2F)OCCn2cc(C(N)=O)nc2-3)C1=O [Example 264]	0.21 µM
Cc1nnc([C@@](C)(O)C#Cc2ccc3c(c2)-c2nc(C(N)=O)sc2[C@](C)(F)CO3)o1 [Example 575, 4-(R)-fluoro-9-[3-(S)-hydroxy-3-(5-methyl-1,3,4-oxadiazol-2-yl)but-1-ynyl]-4-methyl-5H-[1]benzoxepino[5,4-d]thiazole-2-carboxamide]	> 1.2 µM and 0.53 µM
